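In this assay, cells in 96-well plates receive the compound at five concentrations for 48 hours. Endpoints are linearly interpolated between the surrounding concentrations. GI50 marks 50% less growth. TGI: concentration producing complete growth inhibition.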
Experiments:
Assay in all cases: NCI anticancer screen, dose series, 48 h; in the data active = GI50 below about 0.43 µM; inactive = the rest
[1] = system: 786-0 renal
[2] = system: A549 NSCLC
[3] = system: ACHN renal
[4] = system: BT-549 breast
[5] = system: CAKI-1 renal
[6] = system: CCRF-CEM leukemia
[7] = system: COLO 205 colon
[8] = system: DU-145 prostate
[9] = system: EKVX NSCLC
[10] = system: HCT-116 colon
[11] = system: HCT-15 colon
[12] = system: HL-60(TB) leukemia
[13] = system: HOP-62 NSCLC
[14] = system: HOP-92 NSCLC
[15] = system: HS 578T breast
[16] = system: HT29 colon
[17] = system: IGROV1 ovarian
[18] = system: K-562 leukemia
[19] = system: KM12 colon
[20] = system: LOX IMVI melanoma
[21] = system: M14 melanoma
[22] = system: MALME-3M melanoma
[23] = system: MCF7 breast
[24] = system: MDA-MB-435
[25] = system: MDA-N
[26] = system: MOLT-4 leukemia
[27] = system: NCI-H226 lung
[28] = system: NCI-H23 lung
[29] = system: NCI-H322M lung
[30] = system: NCI-H460 lung
[31] = system: NCI-H522 lung
[32] = system: NCI/ADR-RES ovarian
[33] = system: OVCAR-3 ovarian
[34] = system: OVCAR-4 ovarian
[35] = system: OVCAR-5 ovarian
[36] = system: OVCAR-8 ovarian
[37] = system: PC-3 prostate
[38] = system: RPMI-8226 leukemia
[39] = system: SF-268 CNS
[40] = system: SF-295 CNS
[41] = system: SK-MEL-2 melanoma
[42] = system: SK-MEL-28 melanoma
[43] = system: SK-MEL-5 melanoma
[44] = system: SK-OV-3 ovarian
[45] = system: SN12C renal
[46] = system: SNB-19 CNS
[47] = system: SNB-75 CNS
[48] = system: SR leukemia
[49] = system: SW-620 colon
[50] = system: T-47D breast
[51] = system: TK-10 renal
[52] = system: U251 CNS
[53] = system: UACC-257 melanoma
[54] = system: UACC-62 melanoma
[55] = system: UO-31 renal

CN1C(C)(C)C(Br)C(=O)C(Br)C1(C)C (stereo not given)
81.4 µM: TGI [35]
> 100 µM: TGI [1] | TGI [2] | TGI [3] | TGI [4] | TGI [5] | TGI [6] | TGI [7] | TGI [8] | TGI [9] | TGI [10] | TGI [11] | TGI [12] | TGI [13] | TGI [14] | TGI [15] | TGI [16] | TGI [17] | TGI [18] | TGI [19] | TGI [20] | TGI [21] | TGI [22] | TGI [23] | TGI [24] | TGI [25] | TGI [26] | TGI [28] | TGI [29] | TGI [30] | TGI [31] | TGI [32] | TGI [33] | TGI [34] | TGI [36] | TGI [37] | TGI [38] | TGI [39] | TGI [40] | TGI [41] | TGI [42] | TGI [43] | TGI [44] | TGI [45] | TGI [46] | TGI [47] | TGI [48] | TGI [49] | TGI [50] | TGI [51] | TGI [52] | TGI [53] | TGI [54] | TGI [55]
50.8 µM: TGI [27]
inactive: GI50 [1] > 100 µM | GI50 [2] > 100 µM | GI50 [3] > 100 µM | GI50 [4] > 100 µM | GI50 [5] > 100 µM | GI50 [6] > 100 µM | GI50 [7] > 100 µM | GI50 [8] > 100 µM | GI50 [9] > 100 µM | GI50 [10] > 100 µM | GI50 [11] > 100 µM | GI50 [12] > 100 µM | GI50 [13] > 100 µM | GI50 [14] > 100 µM | GI50 [15] > 100 µM | GI50 [16] > 100 µM | GI50 [17] > 100 µM | GI50 [18] > 100 µM | GI50 [19] > 100 µM | GI50 [20] > 100 µM | GI50 [21] > 100 µM | GI50 [22] > 100 µM | GI50 [23] 50.1 µM | GI50 [24] > 100 µM | GI50 [25] > 100 µM | GI50 [26] > 100 µM | GI50 [27] 19.6 µM | GI50 [28] > 100 µM | GI50 [29] > 100 µM | GI50 [30] > 100 µM | GI50 [31] > 100 µM | GI50 [32] > 100 µM | GI50 [33] > 100 µM | GI50 [34] > 100 µM | GI50 [35] 31.8 µM | GI50 [36] > 100 µM | GI50 [37] > 100 µM | GI50 [38] > 100 µM | GI50 [39] > 100 µM | GI50 [40] > 100 µM | GI50 [41] > 100 µM | GI50 [42] > 100 µM | GI50 [43] > 100 µM | GI50 [44] > 100 µM | GI50 [45] > 100 µM | GI50 [46] > 100 µM | GI50 [47] > 100 µM | GI50 [48] > 100 µM | GI50 [49] > 100 µM | GI50 [50] > 100 µM | GI50 [51] > 100 µM | GI50 [52] > 100 µM | GI50 [53] > 100 µM | GI50 [54] > 100 µM | GI50 [55] > 100 µM

— PubChem BioAssay (NCI)
